Test [1] deals with T1, wt IDH1 (Homo sapiens, UniProt O75874).
T1 construct: made in house; host or cells: Escherichia coli BL21(DE3) pLyS
As to the kind of experiment: Absorbance assay (NADPH, 340 nm): kinetics of oxidative reaction (isocitrate to 2OG) by wt IDH1. The format is biochemical. As to the method: All experiments were performed in (at least) triplicate.
KM values were determined by varying concentrations of the substrate/cofactor under investigation while maintaining the concentrations of other components using standard conditions. […] Graphs were fitted using GraphPad Prism to obtain kinetic parameters.

By UniProt entry, the sequences of proteins in these tests, tags left out. Residues count along the entry.
UniProt O75874, 2-414: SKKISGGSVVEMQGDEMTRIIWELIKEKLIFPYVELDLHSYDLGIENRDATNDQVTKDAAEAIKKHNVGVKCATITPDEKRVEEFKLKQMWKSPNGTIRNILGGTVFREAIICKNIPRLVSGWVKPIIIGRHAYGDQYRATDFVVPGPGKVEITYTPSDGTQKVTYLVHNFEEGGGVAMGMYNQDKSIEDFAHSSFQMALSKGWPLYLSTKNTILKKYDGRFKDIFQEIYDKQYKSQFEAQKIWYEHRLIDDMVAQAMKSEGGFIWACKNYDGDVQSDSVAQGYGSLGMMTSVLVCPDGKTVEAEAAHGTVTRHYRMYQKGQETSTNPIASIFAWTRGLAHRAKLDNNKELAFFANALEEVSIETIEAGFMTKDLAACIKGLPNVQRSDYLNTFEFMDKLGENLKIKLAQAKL

In test [2] the target is T1, wt IDH1. Put plainly: Differential scanning fluorimetry (DSF) thermal shift, wt IDH1. The format is binding. As to the method: Thermal shift experiments were carried out using Sypro Orange dye and a CFX96 Touch^TM Real-Time PCR Detection System (Bio-Rad)[69]. […] The standard assay buffer contains 50 mM Tris-HCl at pH 7.5. Various concentrations of substrates were mixed with IDH1 for thermal stabilisation studies. The samples in triplicates were subjected to temperature increases from 20 to 95 °C at 0.2 °C min^−1. Bio-Rad CFX Manager was used to determine the melting temperature, Tm.
On the technique in general: DSF heats the sample and reads unfolding from a dye or from intrinsic fluorescence.

Test [3] concerns the target T1, wt IDH1. As to the kind of experiment: 1H NMR reaction monitoring, wt IDH1. Format: biochemical. As to conditions: 1H NMR (700 MHz), NADP+, 10 mM MgCl2.

The values below come from paper PMC8560763, “Roles of metal ions in the selective inhibition of oncogenic variants of isocitrate dehydrogenase 1” (Communications Biology, 2021).

As usually defined, the Vmax is the top rate of the reaction or transport when substrate is in excess.

Each structure is given as a SMILES string. “And” between values parts separate entries of the source, which are not always exact repeats. Equal values may be shown once. “Also recorded” adds a separate entry of the source.

`O=C(O)CC(C(=O)O)C(O)C(=O)O` (racemic) [DL-isocitrate]: the Velocity is 0.08475 µM/s and 0.05817 µM/s and 0.04396 µM/s in test [1] (Fig. S2a, [Isocitrate] 18.75 μM); 0.1403 µM/s and 0.1279 µM/s and 0.1324 µM/s in test [1] (Fig. S2a, [Isocitrate] 37.5 μM); 0.1758 µM/s and 0.1682 µM/s and 0.1563 µM/s in test [1] (Fig. S2a, [Isocitrate] 75 μM); 0.1816 µM/s and 0.1737 µM/s and 0.1677 µM/s in test [1] (Fig. S2a, [Isocitrate] 150 μM); 0.2122 µM/s and 0.1769 µM/s and 0.169 µM/s in test [1] (Fig. S2a, [Isocitrate] 300 μM); 0.22 µM/s and 0.2077 µM/s and 0.1669 µM/s in test [1] (Fig. S2a, [Isocitrate] 600 μM). The Velocity was 0.2093 µM/s and 0.1956 µM/s and 0.1853 µM/s in test [1] (Fig. S2a, [Isocitrate] 1200 μM); 0.2164 µM/s and 0.2369 µM/s and 0.2 µM/s in test [1] (Fig. S2a, [Isocitrate] 2400 μM); 0.008686 µM/s and 0.01106 µM/s and 0.008949 µM/s in test [1] (Fig. S3a, MnCl2 as metal, [Isocitrate] 2.34375 μM); 0.1113 µM/s and 0.09186 µM/s and 0.08002 µM/s in test [1] (Fig. S3a, MnCl2 as metal, [Isocitrate] 18.75 μM); 0.2006 µM/s and 0.1816 µM/s and 0.1766 µM/s in test [1] (Fig. S3a, MnCl2 as metal, [Isocitrate] 37.5 μM); 0.2687 µM/s and 0.239 µM/s and 0.2364 µM/s in test [1] (Fig. S3a, MnCl2 as metal, [Isocitrate] 75 μM). The Velocity in test [1] (Fig. S3a, MnCl2 as metal, [Isocitrate] 150 μM) was 0.2651 µM/s and 0.2456 µM/s; in test [1] (Fig. S3a, MnCl2 as metal, [Isocitrate] 300 μM), 0.2914 µM/s and 0.2874 µM/s and 0.2895 µM/s; in test [1] (Fig. S3a, MnCl2 as metal, [Isocitrate] 600 μM) it was 0.2808 µM/s and 0.2824 µM/s and 0.2974 µM/s; in test [1] (Fig. S3a, MnCl2 as metal, [Isocitrate] 1200 μM), 0.324 µM/s and 0.3009 µM/s and 0.2719 µM/s; in test [1] (Fig. S3a, MnCl2 as metal, [Isocitrate] 2400 μM), 0.3338 µM/s and 0.2937 µM/s and 0.2569 µM/s. Further, the maximum rate (Vmax) in test [1] (wt IDH1, oxidative reaction with Mg^2+ (10 mM MgCl2)) came to 216 ± 8 nM/s; in test [1] (wt IDH1, oxidative reaction with Mn^2+ (10 mM MnCl2)) it was 313 ± 8 nM/s. Also, the “Δ in Tm” value was 13.3 °C in test [2] (Fig. 2f, wt IDH1, 0.25 mM DL-isocitrate + 10 mM MgCl2, replicates); 15.1 °C and 14.5 °C and 14.3 °C in test [2] (Fig. 2f, wt IDH1, 0.5 mM DL-isocitrate + 10 mM MgCl2, replicates); 16.1 °C and 15.9 °C (2×) in test [2] (Fig. 2f, wt IDH1, 1 mM DL-isocitrate + 10 mM MgCl2, replicates); 17.7 °C in test [2] (Fig. 2f, wt IDH1, 2 mM DL-isocitrate + 10 mM MgCl2, replicates); 19.3 °C (2×) and 19.1 °C in test [2] (Fig. 2f, wt IDH1, 4 mM DL-isocitrate + 10 mM MgCl2, replicates); 12.1 °C in test [2] (Fig. 2f, wt IDH1, […] DL-isocitrate + 10 mM MgCl2, replicates). Also, the “Δ in Tm” value is 6.8 °C (2×) and 6.9 °C in test [2] (Fig. 2d, wt IDH1, 0.25 mM DL-isocitrate, replicates); 8.6 °C and 8.8 °C and 8.7 °C in test [2] (Fig. 2d, wt IDH1, 0.5 mM DL-isocitrate, replicates); 11.2 °C and 11.4 °C and 11.3 °C in test [2] (Fig. 2d, wt IDH1, 1 mM DL-isocitrate, replicates); 13.0 °C and 13.2 °C (2×) in test [2] (Fig. 2d, wt IDH1, 2 mM DL-isocitrate, replicates); 16.4 °C and 15.4 °C and 15.9 °C in test [2] (Fig. 2d, wt IDH1, 4 mM DL-isocitrate, replicates). Besides, the thermal stabilisation in test [2] (wt IDH1, 0.125–4 mM isocitrate alone) is 4.6–16 °C; in test [2] (wt IDH1, 0.125–4 mM isocitrate, with Mg^2+ (10 mM)), 12–19 °C. For the same compound, in test [2] (wt IDH1, 0.125—4 mM, 50 mM Tris-HCl, pH 7.5), the “thermal stabilisation by cosubstrates” value was “stabilise”. Further, the “conversion by wt IDH1” value in test [3] stood at 50% converted.
`O=C(O)C[C@H](C(=O)O)[C@@H](O)C(=O)O` [D-isocitrate]: the “conversion by wt IDH1” value in test [3] is “selectively converted to 2OG; also recorded: fully converted”.
